Results published in patent US20030232839A1, “Treatment of sleeping disorders using CNS sleep target modulators” (Hypnion, Inc., priority 2002, published 2003).

System: Male Wistar rats
Assay: SCORE-2000 sleep-wake assay (EEG/EMG, locomotor activity, body temperature)
Settings: 30 mg/kg

O=C(OC1CCCC1)C1CN(CCCn2nc3ccccn3c2=O)CCN1c1cccc(Cl)c1 (stereo not drawn) [HY-2725]
Body Temp (CV) Adverse Event: No
Disproportional Motor Inhibition: None
Rebound Insomnia: None
